Measured values: patent publication US11028072B2, “2,4-diamino-6-ethylpyrimidine derivatives with antimalarial activities against Plasmodium falciparum” (National Science and Technology Development Agency, priority 2015, dated 2021)

System: Human dihydrofolate reductase (hDHFR)
Assay: Inhibition of human dihydrofolate reductase (Ki)
Format: biochemical
Details: Ki hDHFR divided by Ki quadruple mutant pfDHFR

**Q.** Which “Selectivity ratio of Ki hDHFR/Ki QM” value does the source give for `CCc1nc(N)nc(N)c1OCc1csc(-c2ccc(C(=O)O)cc2)n1` [Compound 75] here?
**A.** The value was 7.69.

**Q.** For `CCc1nc(N)nc(N)c1-c1cn(Cc2ccc(C(=O)OC)cc2)nn1` [Compound 4], which “Selectivity ratio of Ki hDHFR/Ki QM” value is on record?
**A.** Its value is 106.74.

**Q.** How did the “Selectivity ratio of Ki hDHFR/Ki QM” value turn out when `CCc1nc(N)nc(N)c1OCc1cc(-c2ccc(OC)cc2)no1` [Compound 42] was run?
**A.** The value was 25.71.

**Q.** `CCc1nc(N)nc(N)c1-c1cn(Cc2ccc(C(=O)O)cc2)nn1` [Compound 5] was tested. Which “Selectivity ratio of Ki hDHFR/Ki QM” value did it give?
**A.** The value was 25.75.

**Q.** With `CCc1nc(N)nc(N)c1OCc1coc(-c2ccc(Cl)cc2)n1` [Compound 55] as the molecule, how does the “Selectivity ratio of Ki hDHFR/Ki QM” value read?
**A.** The value was over 3043.21.

**Q.** How did the “Selectivity ratio of Ki hDHFR/Ki QM” value turn out when `CCc1nc(N)nc(N)c1-c1cn(CCc2ccccc2)nn1` [Compound 7] was run?
**A.** The value was 45.94.

**Q.** With `CCc1nc(N)nc(N)c1OCc1csc(-c2cccc(C(=O)O)c2)n1.Cl` [Compound 66, 2,4-diamino-6-ethyl-5-((2-(3-(carboxy)phenyl)thiazol-4-yl)methoxy)pyrimidine Hydrochloride] as the molecule, how does the “Selectivity ratio of Ki hDHFR/Ki QM” value read?
**A.** The value was 2.79.

**Q.** With `CCc1nc(N)nc(N)c1OCc1csc(-c2cccc(C(=O)OC)c2)n1` [Compound 65] as the molecule, how does the “Selectivity ratio of Ki hDHFR/Ki QM” value read?
**A.** The value was 3.44.

**Q.** With `CCc1nc(N)nc(N)c1OCc1csc(-c2cccc(OCC(=O)O)c2)n1` [Compound 64] as the molecule, how does the “Selectivity ratio of Ki hDHFR/Ki QM” value read?
**A.** The value was 4.45.

**Q.** `CCc1nc(N)nc(N)c1OCCc1cn(-c2ccc(C(=O)OC)cc2)nn1` [Compound 21] was tested. Which “Selectivity ratio of Ki hDHFR/Ki QM” value did it give?
**A.** The value was 123.66.

**Q.** With `CCc1nc(N)nc(N)c1OCc1coc(-c2cccc(OCC(=O)OCc3ccccc3)c2)n1` [Compound 53] as the molecule, how does the “Selectivity ratio of Ki hDHFR/Ki QM” value read?
**A.** Its value is 14.96.

**Q.** For `CCc1nc(N)nc(N)c1OCc1coc(-c2cccc(OCC(=O)O)c2)n1` [Compound 54], which “Selectivity ratio of Ki hDHFR/Ki QM” value is on record?
**A.** Its value is 2.07.

**Q.** How did the “Selectivity ratio of Ki hDHFR/Ki QM” value turn out when `CCc1nc(N)nc(N)c1OCc1cc(-c2ccc(C(=O)O)cc2)no1` [Compound 44] was run?
**A.** The value was over 408.21.

**Q.** With `CCc1nc(N)nc(N)c1OCCc1coc(-c2ccc(C(=O)O)cc2)n1` [Compound 59] as the molecule, how does the “Selectivity ratio of Ki hDHFR/Ki QM” value read?
**A.** Its value is 11.15.

**Q.** `CCc1nc(N)nc(N)c1OCc1csc(-c2ccc(F)cc2)n1` [Compound 69] was tested. Which “Selectivity ratio of Ki hDHFR/Ki QM” value did it give?
**A.** The value was 6.98.

**Q.** How did the “Selectivity ratio of Ki hDHFR/Ki QM” value turn out when `CCc1nc(N)nc(N)c1OCc1csc(-c2cccc(OCC(=O)OCc3ccccc3)c2)n1` [Compound 63] was run?
**A.** The value was 3.48.

**Q.** `CCc1nc(N)nc(N)c1OCCCc1cn(-c2ccc(C(=O)OC)cc2)nn1` [Compound 24] was tested. Which “Selectivity ratio of Ki hDHFR/Ki QM” value did it give?
**A.** The value was 9.98.

**Q.** With `CCc1nc(N)nc(N)c1OCc1cc(-c2ccc([N+](=O)[O-])cc2)no1` [Compound 43] as the molecule, how does the “Selectivity ratio of Ki hDHFR/Ki QM” value read?
**A.** Its value is over 326.51.

**Q.** Which “Selectivity ratio of Ki hDHFR/Ki QM” value does the source give for `CCc1nc(N)nc(N)c1OCc1csc(-c2ccc(OCC(=O)OCc3ccccc3)cc2)n1` [Compound 72] here?
**A.** Its value is 4.63.

**Q.** For `CCc1nc(N)nc(N)c1-c1cn(-c2cccc(C(=O)O)c2)nn1.Cl` [Compound 2, 2,4-diamino-6-ethyl-5-(1-(3-(carboxy)phenyl)-1H-1,2,3-triazol-4-yl)pyrimidine Hydrochloride], which “Selectivity ratio of Ki hDHFR/Ki QM” value is on record?
**A.** Its value is 15.03.

**Q.** Which “Selectivity ratio of Ki hDHFR/Ki QM” value does the source give for `CCc1nc(N)nc(N)c1OCc1csc(-c2ccc(OCC(=O)O)cc2)n1` [Compound 73] here?
**A.** The value was 12.36.

**Q.** How did the “Selectivity ratio of Ki hDHFR/Ki QM” value turn out when `CCc1nc(N)nc(N)c1OCc1cc(-c2cccc(OC)c2)no1` [Compound 38] was run?
**A.** The value was 47.32.

**Q.** How did the “Selectivity ratio of Ki hDHFR/Ki QM” value turn out when `CCc1nc(N)nc(N)c1OCc1cn(-c2cccc(C(=O)O)c2)nn1.Cl` [Compound 16, 2,4-diamino-6-ethyl-5-((1-(3-(carboxy)phenyl)-1H-1,2,3-triazol-4-yl)methoxy)pyrimidine Hydrochloride] was run?
**A.** Its value is 132.21.

**Q.** How did the “Selectivity ratio of Ki hDHFR/Ki QM” value turn out when `CCc1nc(N)nc(N)c1OCc1coc(-c2ccc(OCC(=O)O)cc2)n1` [Compound 57] was run?
**A.** Its value is 9.18.

System: Vero cells
Assay: not given
Details: IC50 Vero cells divided by IC50 V1/S
From the text: In Vitro Antimalarial Activites Against P. falciparum and Cytotoxicity Towards Mammalian Cells (Vero Cells)

**Q.** With `CCc1nc(N)nc(N)c1OCc1cn(-c2ccc(C(=O)OC)cc2)nn1` [Compound 18] as the molecule, how does the “Selectivity ratio (IC50 ratio) Vero/V1/S” value read?
**A.** The value was over 3.68.

**Q.** With `CCc1nc(N)nc(N)c1OCc1cn(-c2cccc(C(=O)OC)c2)nn1` [Compound 15] as the molecule, how does the “Selectivity ratio (IC50 ratio) Vero/V1/S” value read?
**A.** Its value is over 2.84.

**Q.** For `CCc1nc(N)nc(N)c1-c1cn(Cc2ccc(OC(=O)N(c3ccccc3)c3ccccc3)cc2)nn1` [Compound 6], which “Selectivity ratio (IC50 ratio) Vero/V1/S” value is on record?
**A.** Its value is over 5.80.

**Q.** With `CCc1nc(N)nc(N)c1-c1cn(CCOc2ccc(C(=O)OC)cc2)nn1` [Compound 10] as the molecule, how does the “Selectivity ratio (IC50 ratio) Vero/V1/S” value read?
**A.** The value was 1.85.
